Experiments:
[1] = biological target: T1, recombinant TRX-NtMPO1 fusion protein (Nicotiana tabacum, UniProt A0A1S4BDC4); test: spectrophotometric amine oxidase assay of recombinant TRX-NtMPO1 with diamine substrates
T1 sequence (A0A1S4BDC4 1-790): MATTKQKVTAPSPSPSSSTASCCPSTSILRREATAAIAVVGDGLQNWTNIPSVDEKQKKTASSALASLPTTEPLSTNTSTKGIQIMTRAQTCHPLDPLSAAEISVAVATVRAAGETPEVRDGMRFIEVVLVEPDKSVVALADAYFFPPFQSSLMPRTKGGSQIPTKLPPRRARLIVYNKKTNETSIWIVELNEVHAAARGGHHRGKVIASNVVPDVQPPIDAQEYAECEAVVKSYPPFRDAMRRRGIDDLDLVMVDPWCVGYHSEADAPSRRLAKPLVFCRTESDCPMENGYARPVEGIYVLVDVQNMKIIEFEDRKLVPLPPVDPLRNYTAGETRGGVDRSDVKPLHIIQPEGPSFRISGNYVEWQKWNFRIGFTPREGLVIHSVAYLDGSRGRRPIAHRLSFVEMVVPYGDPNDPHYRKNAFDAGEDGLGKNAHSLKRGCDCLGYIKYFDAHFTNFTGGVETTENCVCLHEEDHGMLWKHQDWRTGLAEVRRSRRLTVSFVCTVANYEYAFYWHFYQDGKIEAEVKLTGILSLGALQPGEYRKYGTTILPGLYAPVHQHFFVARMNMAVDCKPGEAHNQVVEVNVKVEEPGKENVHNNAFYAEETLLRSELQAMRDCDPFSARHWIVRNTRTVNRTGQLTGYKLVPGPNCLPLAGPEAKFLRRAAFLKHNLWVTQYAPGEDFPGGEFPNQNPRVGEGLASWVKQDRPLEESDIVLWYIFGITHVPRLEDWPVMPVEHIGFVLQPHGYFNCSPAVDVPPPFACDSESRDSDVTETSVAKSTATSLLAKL
Procedure: This modified fragment was cloned into pCR2.1 (Invitrogen) to yield pJGJ367. […] Finally, a 2.6 Kb NcoI-XhoI (partial) fragment was cut from pJGJ369 and ligated into pET32a+ similarly cut, to yield pJGJ389. Plasmid pJGJ389 was transformed into the Rosetta E. coli strain (Novagen, Madison, Wis.) for expression of a recombinant […] protein. Mid-log phase Rosetta/pJGJ389 cells were cultured overnight in LB media supplemented with 100 ug/ml Ampicillin, 30 ug/ml Chloramphenicol, and 0.2 mM isopropyl-β-D-thiogalactoside at 18° C. at 250 rpm. The cells were pelleted, lysed, and the native protein extract incubated with Ni-NTA superflow resin, and the TRX-MPO1 was eluted as per manufacture's instructions (Qiagen, Valencia, Calif.). The TRX-MPO1 enriched extract was mixed 1:1 (v:v) with 100% glycerol and stored at −20° C.

CNCCCCN = test: purified protein, by the assay type; conditions: other: substrate kinetics, Lineweaver-Burk plots, three independent extracts; 18.0 °C
NCCCCCN = test: purified protein, by the assay type; conditions: other: substrate kinetics, Lineweaver-Burk plots, three independent extracts; 18.0 °C

| Molecule | oxidative deamination as substrate by recombinant TRX-MPO1 [1] | Km (CNCCCCN) | Km (NCCCCCN) |
| --- | --- | --- | --- |
| NCCCCN [putrescine] | oxidatively deaminated |  |  |
| recombinant TRX-NtMPO1 fusion protein (Nicotiana tabacum) |  | 0.19 ± 0.02 mM | 1.79 ± 0.16 mM |

From US20090055964A1, “MPO1 GENE AND PROTEIN AND METHODS OF USE” (priority 2006, published 2009)
